Experiment [1] addresses glucagon-like peptide-2 receptor (hGLP-2R), stably expressed on HEK293 cells (human) (UniProt O95838).
Experiment [2] has the same target. This is another data set of the same source.

Amino acid sequences for entries named in this document (tags omitted). A change or cut given only in a name is not applied to a line headed by its entry.
UniProt O95838: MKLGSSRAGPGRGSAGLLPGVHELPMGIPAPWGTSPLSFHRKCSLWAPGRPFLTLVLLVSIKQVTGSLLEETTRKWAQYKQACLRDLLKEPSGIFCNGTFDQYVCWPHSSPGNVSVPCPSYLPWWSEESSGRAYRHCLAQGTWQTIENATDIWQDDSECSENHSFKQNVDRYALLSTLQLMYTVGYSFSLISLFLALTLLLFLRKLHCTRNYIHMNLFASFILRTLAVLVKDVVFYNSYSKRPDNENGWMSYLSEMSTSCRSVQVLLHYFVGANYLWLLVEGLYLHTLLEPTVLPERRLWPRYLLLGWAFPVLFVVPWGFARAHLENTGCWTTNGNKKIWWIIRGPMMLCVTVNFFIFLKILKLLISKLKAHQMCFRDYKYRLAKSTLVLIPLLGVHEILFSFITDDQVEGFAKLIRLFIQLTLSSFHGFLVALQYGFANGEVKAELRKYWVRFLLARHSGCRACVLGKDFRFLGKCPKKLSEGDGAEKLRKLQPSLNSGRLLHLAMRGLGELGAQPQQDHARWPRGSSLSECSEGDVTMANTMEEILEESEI

In experiment [1], “D-GLP-2 (D-retro-inverted GLP-2 analogue) (designed binder)” registered an HTRF cAMP assay (decrease of the FRET signal) in GLP-2R expressing HEK293 cells of 1420 nM. “D-GLP-2 E33A hydrazide (designed binder)” had an HTRF cAMP assay (decrease of the FRET signal) in GLP-2R expressing HEK293 cells in experiment [1] of 226 nM. The HTRF cAMP assay in GLP-2R expressing HEK293 cells: efficacy compared to L-GLP-2 in experiment [2] was found to be 69.4%.

(Values after PMC10424673, “Computational Design of Potent and Selective D-Peptide Agonists of the Glucagon-like Peptide-2 Receptor” (Journal of Medicinal Chemistry, 2023).)
